Article PMC4245550, “Exploring the Chemodiversity and Biological Activities of the Secondary Metabolites from the Marine Fungus Neosartorya pseudofischeri” (Marine Drugs, 2014)

System: RKO (a poorly differentiated colon carcinoma cell line)
Assay: Cytotoxicity, MTS assay
Conditions: 72 h

CN1C(=O)[C@]23CC4=CC=C[C@H](O)[C@H]4N2C(=O)[C@@]1(CO)SS3 [Compound 7, gliotoxin]
IC50 (Homo sapiens, RKO): 0.8 ± 0.2 µM

CN1C(=O)C2(S)CC3=CC=CC(O)C3N2C(=O)C1(S)CO (centres unmarked) [Compound 9, reduced gliotoxin]
IC50 (Homo sapiens, RKO): 0.41 ± 0.07 µM

CSC1(CO)C(=O)N2c3ccccc3CC2(SC)C(=O)N1C (centres unmarked) [Compound 12, didehydrobisdethiobis(methylthio)gliotoxin]
IC50 (Homo sapiens, RKO): > 50 µM

bisdethiobis(methylthio)gliotoxin [Compound 11]
IC50 (RKO cells, MTS, n = 5): 10.32 ± 0.04 µM

CSC1(CO)C(=O)N2C3C(=CC=CC3OC(C)=O)CC2(SC)C(=O)N1C (centres unmarked) [Compound 10, 6-acetylbis(methylthio)gliotoxin]
IC50 (Homo sapiens, RKO): > 50 µM
